Data from BindingDB's records for doi:10.1016/s0891-0618(03)00032-2 (University of Michigan, 2003).

Chains of the proteins cited; added tags and fusions are not shown.
UniProt P33535, whole entry: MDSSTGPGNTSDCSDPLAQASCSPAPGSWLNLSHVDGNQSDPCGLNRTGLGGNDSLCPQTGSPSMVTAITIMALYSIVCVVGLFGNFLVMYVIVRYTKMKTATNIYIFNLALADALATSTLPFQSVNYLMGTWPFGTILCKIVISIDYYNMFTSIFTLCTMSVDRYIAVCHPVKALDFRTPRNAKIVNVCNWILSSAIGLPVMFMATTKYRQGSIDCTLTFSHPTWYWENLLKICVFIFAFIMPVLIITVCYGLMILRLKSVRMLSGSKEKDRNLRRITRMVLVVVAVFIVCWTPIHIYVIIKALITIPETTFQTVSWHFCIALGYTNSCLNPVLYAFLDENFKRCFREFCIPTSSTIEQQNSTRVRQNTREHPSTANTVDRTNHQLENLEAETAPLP

Target: Mu-type opioid receptor (Rattus norvegicus, UniProt P33535)

C[C@@H](NC(=O)[C@@H](N)Cc1ccc(O)cc1)C(=O)NCC(=O)N(C)[C@@H](Cc1ccccc1)C(=O)NCCO [CAS_100929-53-1]
Ki: 32 nM
